{"source": "paper PMC10330721", "about": "“Chemo-enzymatic synthesis and biological activity evaluation of propenylbenzene derivatives” (Frontiers in Microbiology, 2023)", "experiment": "Haemolytic activity assay", "type": "cell-based", "conditions": "human red blood cells (RBCs) from healthy donors, 37°C, read-out: Percentage of haemolysis", "data": [{"smiles": "CC=Cc1ccccc1", "note": "[2a, prop-1-en-1-yl benzene]", "values": [{"measurement": "hemolysis at 1 h, 10 µM", "setting": "10 µM", "value": "1.27 ± 0.319", "unit": "%"}, {"measurement": "hemolysis at 1 h, 20 µM", "setting": "20 µM", "value": "1.67 ± 0.175", "unit": "%"}, {"measurement": "hemolysis at 1 h, 40 µM", "setting": "40 µM", "value": "1.48 ± 0.034", "unit": "%"}, {"measurement": "hemolysis at 1 h, 60 µM", "setting": "60 µM", "value": "1.77 ± 0.155", "unit": "%"}, {"measurement": "hemolysis at 1 h, 80 µM", "setting": "80 µM", "value": "1.25 ± 0.263", "unit": "%"}, {"measurement": "hemolysis at 1 h, 100 µM", "setting": "100 µM", "value": "2.04 ± 0.067", "unit": "%"}]}]}
